We go through 2 compounds from patent US20080221060A1, “Therapeutic Compounds” (priority 2004, published 2008).

Amino acid sequences for entries named in this document (tags omitted).
UniProt P30543, whole entry: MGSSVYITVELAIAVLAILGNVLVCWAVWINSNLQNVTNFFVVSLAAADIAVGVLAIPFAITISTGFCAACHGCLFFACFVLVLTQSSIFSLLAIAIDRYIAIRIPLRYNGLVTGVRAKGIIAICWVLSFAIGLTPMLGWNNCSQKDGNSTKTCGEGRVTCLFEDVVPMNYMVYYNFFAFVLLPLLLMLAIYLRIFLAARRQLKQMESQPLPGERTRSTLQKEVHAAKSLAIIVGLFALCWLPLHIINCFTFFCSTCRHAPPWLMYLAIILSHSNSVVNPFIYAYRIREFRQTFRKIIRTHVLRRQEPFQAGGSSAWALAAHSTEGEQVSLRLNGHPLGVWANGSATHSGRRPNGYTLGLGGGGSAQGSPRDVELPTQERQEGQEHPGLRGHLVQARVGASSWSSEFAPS

The target in this experiment is adenosine receptors (rat striatal membranes, [3H]-CGS21680) (Rattus norvegicus, UniProt P30543). Nature of the experiment: Ki from displacement of [3H]-CGS21680 in rat striatal membranes at pH 5.5 and pH 7.4. Also noted: from tissue; host or cells: rat striatum (membranes). The format is binding. As to conditions: 2 nM [3H]-CGS21680, 90 minutes at 22° C. A general note: Loss of bound radioactivity is the signal in a displacement assay; it reports binding, not function.

Take `Cc1ccccc1Oc1nc(N)c2ncn([C@@H]3O[C@H](CO)[C@@H](O)[C@H]3O)c2n1` [Compound 14]: the inhibitory constant (Ki) (commonly a dissociation constant, usually derived from enzyme kinetics or from competition with a known ligand) came to 24 nM.

As to `CN(C)c1nc(N)c2ncn([C@@H]3O[C@H](CO)[C@@H](O)[C@H]3O)c2n1` [Compound 21], the inhibitory constant (Ki) worked out at 24 nM.
